Experimental data published in patent US20180318311A1, “TRICYCLIC 2-QUINOLINONES AS ANTIBACTERIALS” (priority 2017, published 2018).

Key:
Type in all cases: cell-based
[1] = system: S. pneumoniae ATCC 25922 (NB07001); assay: MIC by broth microdilution, S. pneumoniae NB07001; details: Streptococcus pneumoniae, ATCC25922, 20 h, read-out: Antibacterial activity (MIC) NB07001
[2] = system: P. aeruginosa NB52019, wild-type PAO1 strain; assay: MIC by broth microdilution, P. aeruginosa NB52019; details: Pseudomonas aeruginosa, PAO1, 20 h, read-out: Antibacterial activity (MIC) NB52019
[3] = system: S. aureus NB01080 fluoroquinolone-resistant clinical isolate; assay: MIC by broth microdilution, S. aureus NB01080; details: Staphylococcus aureus, 20 h, read-out: Antibacterial activity (MIC) NB01080
[4] = system: E. faecalis ATCC 29212 (NB04001); assay: MIC by broth microdilution, E. faecalis NB04001; details: Enterococcus faecalis, ATCC29212, 20 h, read-out: Antibacterial activity (MIC) NB04001
[5] = system: E. coli ATCC 25922 (NB27001); assay: MIC by broth microdilution, E. coli NB27001; details: Escherichia coli, ATCC25922, 20 h, read-out: Antibacterial activity (MIC) NB27001

Row | SMILES | MIC [1] [µg/mL] | MIC [2] [µg/mL] | MIC [3] [µg/mL] | MIC [4] [µg/mL] | MIC [5] [µg/mL]
1 | C[C@H]1COc2c(N3CC[C@@H](C4(N)CC4)C3)ccc3cc(C(=O)O)c(=O)n1c23 [Example 12.3, (S)-10-((R)-3-(1-aminocyclopropyl)pyrrolidin-1-yl)-3-methyl-5-oxo-2,3-dihydro-5H-[1,4]oxazino[2,3,4-ij]quinoline-6-carboxylic acid] | < 1 | > 32 | < 1 | < 1 | < 1
2 | C[C@H]1COc2c(N3CC[C@@H](C4(N)CC4)C3)cc(Cl)c3cc(C(=O)O)c(=O)n1c23 [Example 19.3, (S)-10-((R)-3-(1-aminocyclopropyl)pyrrolidin-1-yl)-8-chloro-3-methyl-5-oxo-2,3-dihydro-5H-[1,4]oxazino[2,3,4-ij]quinoline-6-carboxylic acid] | < 1 | > 32 |  | < 1 | 1 to 32 (≈ 2.48 to 79.2 µM)

≈ marks a conversion by molar mass, not a printed value.
